Target: Protein farnesyltransferase (Homo sapiens, UniProt P49354+P49356)
Test: Inhibition of farnesyl transferase
Assay type: protein-complex assay

CC1(c2cccc3ccccc23)C(=O)N(CCCn2ccnc2)C(=O)N1Cc1ccc(CN)cc1 (stereo unspecified)
IC50: 2100 nM
